Residue numbers refer to the chain shown, from its start. Like-named read-outs stand apart in the source and are kept apart here.
B1: Compound 53 (peptide)
peptide: YXEGTFTSDYSIXLEKQAQXAFIRHLINKXTRQRY
modifications: Aib at 2, 20, 30; aMeL at 13; Lys29 epsilon-amino acylated with C20DA-gGlu-gGlu-gGlu-gGlu-gGlu-gGlu-eLys; C-terminal amide
B2: Compound 1 (peptide)
peptide: B1 peptide with Y10L, I23V
modifications: Aib at 2, 13, 20, 30; Lys29 epsilon-amino acylated with C20DA-gGlu-gGlu-gGlu-gGlu-gGlu-AHX-AHX; C-terminal amide
B3: Compound 9 (peptide)
peptide: B1 peptide with I23V
modifications: Aib at 2, 13, 20, 30; Lys29 epsilon-amino acylated with C18DA-gGlu-gGlu-gGlu-gGlu-gGlu-gGlu-AHX; C-terminal amide

Amino acid sequences for entries named in this document (tags omitted). Residues count along the entry.
UniProt P49146, whole entry: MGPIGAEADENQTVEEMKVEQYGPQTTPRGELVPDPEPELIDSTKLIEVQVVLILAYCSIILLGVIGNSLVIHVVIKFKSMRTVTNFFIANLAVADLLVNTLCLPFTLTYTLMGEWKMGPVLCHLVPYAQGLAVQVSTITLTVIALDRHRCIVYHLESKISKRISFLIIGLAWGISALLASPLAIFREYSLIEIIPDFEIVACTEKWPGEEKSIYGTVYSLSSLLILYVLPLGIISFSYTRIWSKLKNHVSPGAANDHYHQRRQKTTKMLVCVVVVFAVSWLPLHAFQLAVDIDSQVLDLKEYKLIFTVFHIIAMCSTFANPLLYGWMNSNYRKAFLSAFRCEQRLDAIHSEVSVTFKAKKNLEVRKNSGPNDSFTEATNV
UniProt P43220, 24-463: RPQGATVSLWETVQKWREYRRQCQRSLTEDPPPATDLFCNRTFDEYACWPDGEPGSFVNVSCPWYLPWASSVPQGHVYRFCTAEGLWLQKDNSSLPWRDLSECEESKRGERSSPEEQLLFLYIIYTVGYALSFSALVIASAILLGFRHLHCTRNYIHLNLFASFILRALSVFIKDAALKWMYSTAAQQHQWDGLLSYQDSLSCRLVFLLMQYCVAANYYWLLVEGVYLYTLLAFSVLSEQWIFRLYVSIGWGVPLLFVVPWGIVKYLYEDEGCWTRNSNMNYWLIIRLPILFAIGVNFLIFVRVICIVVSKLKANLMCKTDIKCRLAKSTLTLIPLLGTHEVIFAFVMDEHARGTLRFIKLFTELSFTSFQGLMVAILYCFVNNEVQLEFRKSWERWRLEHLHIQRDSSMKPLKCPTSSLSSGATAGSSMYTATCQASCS

Tests used:
[1] = target: T1, hNPY2R (Homo sapiens, UniProt P49146); assay: hNPY2R CreLuc assay in 0.5% and 100% plasma (HEK-293 CRE-luciferase reporter cells); assay type: cell-based; conditions: HEK-293 reporter cells
T1 construct: expressed in transfected cells; host or cells: HEK-293 CRE-luciferase reporter cells
From the text: (§1) CHO and HEK-293 recombinant cell lines express a luciferase reporter gene under control of the CAMP responsive element (CRE). As a second recombinant protein the GLP-1 and NPY2 receptors were expressed in the reporter gene HEK cells, and the GIP receptor was expressed in the reporter gene CHO cells, respectively. Stimulation of these recombinant cells with an agonist leads to an increase of intracellular CAMP levels. In the presence of CAMP, the transcription factor CRE binding protein (CREB) binds to the CRE and to the CREB binding protein (CBP), which leads to transcription of the luciferase reporter gene. Peptides upon serial-dilution in 100% DMSO were transferred into 384-well assay plates with 5 μl pre-dispensed assay buffer (1×HBSS, 20 mM HEPES, pH7.4 supplemented with 0.5% human plasma) using acoustic dispensing on a Labcyte ECHO. Cryo-preserved transgenic reporter gene cells were thawed in assay buffer. 20 μl (10.000 cells/well) were added to the plate with the peptides and incubated for 4 hours at 37° C. in a humidified incubator. Following incubation, assay plates are equilibrated to room temperature, followed by addition of 25 μl of Bright-Glo™ Luciferase reagent, incubation at room temperature for 10 minutes and analysis of luminescence (Envision Reader). […] EC50 values were calculated by non-linear regression using sigmoid concentration-response with variable slope.
(§2) The same assays were run in the presence of 100% plasma with no additional buffer constituents.

[2] = target: T2, hGLP1R (Homo sapiens, UniProt P43220); assay: hGLP1R CreLuc assay in 0.5% and 100% plasma (HEK-293 CRE-luciferase reporter cells); assay type: cell-based; conditions: 100% human plasma, HEK-293 reporter cells, read-out: hGLP1R 100% hP
T2 construct: expressed in transfected cells; host or cells: HEK-293 CRE-luciferase reporter cells
From the text: as §1, §2

[3] = target: human GLP-1 receptor (human, UniProt P43220 24-463); assay: cell-based or functional assay

Molecule | EC50 [2] [nM] | EC50, CreLuc reporter, 100% hP [3] [nM] | other results
CC[C@H](C)[C@H](NC(=O)[C@H](Cc1ccccc1)NC(=O)[C@H](C)NC(=O)C(C)(C)NC(=O)[C@H](CCC(N)=O)NC(=O)[C@H](C)NC(=O)[C@H](CCC(N)=O)NC(=O)[C@H](CCCCN)NC(=O)[C@H](CCC(=O)O)NC(=O)[C@H](CC(C)C)NC(=O)[C@](C)(CC(C)C)NC(=O)[C@@H](NC(=O)[C@H](CO)NC(=O)[C@H](Cc1ccc(O)cc1)NC(=O)[C@H](CC(=O)O)NC(=O)[C@H](CO)NC(=O)[C@@H](NC(=O)[C@H](Cc1ccccc1)NC(=O)[C@@H](NC(=O)CNC(=O)[C@H](CCC(=O)O)NC(=O)C(C)(C)NC(=O)[C@@H](N)Cc1ccc(O)cc1)[C@@H](C)O)[C@@H](C)O)[C@@H](C)CC)C(=O)N[C@@H](CCCNC(=N)N)C(=O)N[C@@H](Cc1c[nH]cn1)C(=O)N[C@@H](CC(C)C)C(=O)N[C@H](C(=O)N[C@@H](CC(N)=O)C(=O)N[C@@H](CCCCNC(=O)[C@@H](N)CCCCNC(=O)CC[C@H](NC(=O)CC[C@H](NC(=O)CC[C@H](NC(=O)CC[C@H](NC(=O)CC[C@H](NC(=O)CC[C@H](NC(=O)CCCCCCCCCCCCCCCCCCC(=O)O)C(=O)O)C(=O)O)C(=O)O)C(=O)O)C(=O)O)C(=O)O)C(=O)NC(C)(C)C(=O)N[C@H](C(=O)N[C@@H](CCCNC(=N)N)C(=O)N[C@@H](CCC(N)=O)C(=O)N[C@@H](CCCNC(=N)N)C(=O)N[C@@H](Cc1ccc(O)cc1)C(N)=O)[C@@H](C)O)[C@@H](C)CC [Compound 53, Y-Aib-E-G-T-F-T-S-D-Y-S-I-aMeL-L-E-K-Q-A-Q-Aib-A-F-I-R-H-L-I-N-K(1,3)-Aib-T-R-Q-R-Y-NH2.C20DA-gGlu-gGlu-gGlu-gGlu-gGlu-gGlu-eLys(1,2)] | 1.1 | – | EC50 ([1]; 0.5% human plasma, read-out: hNPY2R 0.5% hP): 8.2 nM
CC[C@H](C)[C@H](NC(=O)[C@H](CC(C)C)NC(=O)[C@H](Cc1c[nH]cn1)NC(=O)[C@H](CCCNC(=N)N)NC(=O)[C@@H](NC(=O)[C@H](Cc1ccccc1)NC(=O)[C@H](C)NC(=O)C(C)(C)NC(=O)[C@H](CCC(N)=O)NC(=O)[C@H](C)NC(=O)[C@H](CCC(N)=O)NC(=O)[C@H](CCCCN)NC(=O)[C@H](CCC(=O)O)NC(=O)[C@H](CC(C)C)NC(=O)C(C)(C)NC(=O)[C@@H](NC(=O)[C@H](CO)NC(=O)[C@H](Cc1ccc(O)cc1)NC(=O)[C@H](CC(=O)O)NC(=O)[C@H](CO)NC(=O)[C@@H](NC(=O)[C@H](Cc1ccccc1)NC(=O)[C@@H](NC(=O)CNC(=O)[C@H](CCC(=O)O)NC(=O)C(C)(C)NC(=O)[C@@H](N)Cc1ccc(O)cc1)[C@@H](C)O)[C@@H](C)O)[C@@H](C)CC)C(C)C)C(=O)N[C@@H](CC(N)=O)C(=O)N[C@@H](CCCCNC(=O)[C@@H](N)CCCCNC(=O)CC[C@H](NC(=O)CC[C@H](NC(=O)CC[C@H](NC(=O)CC[C@H](NC(=O)CC[C@H](NC(=O)CC[C@H](NC(=O)CCCCCCCCCCCCCCCCC(=O)O)C(=O)O)C(=O)O)C(=O)O)C(=O)O)C(=O)O)C(=O)O)C(=O)NC(C)(C)C(=O)N[C@H](C(=O)N[C@@H](CCCNC(=N)N)C(=O)N[C@@H](CCC(N)=O)C(=O)N[C@@H](CCCNC(=N)N)C(=O)N[C@@H](Cc1ccc(F)cc1)C(N)=O)[C@@H](C)O [Compound 86, Y-Aib-E-G-T-F-T-S-D-Y-S-I-Aib-L-E-K-Q-A-Q-Aib-A-F-V-R-H-L-I-N-K(1,3)-Aib-T-R-Q-R-Phe4F-NH2.C18DA-gGlu-gGlu-gGlu-gGlu-gGlu-gGlu-eLys(1,2)] | 3.7 | – | –
CC[C@H](C)[C@H](NC(=O)[C@H](CC(C)C)NC(=O)[C@H](Cc1c[nH]cn1)NC(=O)[C@H](CCCNC(=N)N)NC(=O)[C@@H](NC(=O)[C@H](Cc1ccccc1)NC(=O)[C@H](C)NC(=O)C(C)(C)NC(=O)[C@H](CCC(N)=O)NC(=O)[C@H](C)NC(=O)[C@H](CCC(N)=O)NC(=O)[C@H](CCC(=O)O)NC(=O)[C@H](CCC(=O)O)NC(=O)[C@H](CC(C)C)NC(=O)[C@](C)(CC(C)C)NC(=O)[C@@H](NC(=O)[C@H](CO)NC(=O)[C@H](Cc1ccc(O)cc1)NC(=O)[C@H](CC(=O)O)NC(=O)[C@H](CO)NC(=O)[C@@H](NC(=O)[C@H](Cc1ccccc1)NC(=O)[C@@H](NC(=O)CNC(=O)[C@H](CCC(=O)O)NC(=O)C(C)(C)NC(=O)[C@@H](N)Cc1ccc(O)cc1)[C@@H](C)O)[C@@H](C)O)[C@@H](C)CC)C(C)C)C(=O)N[C@@H](CC(N)=O)C(=O)N[C@@H](CCCCNC(=O)[C@@H](N)CCCCNC(=O)CC[C@H](NC(=O)CC[C@H](NC(=O)CC[C@H](NC(=O)CC[C@H](NC(=O)CC[C@H](NC(=O)CC[C@H](NC(=O)CCCCCCCCCCCCCCCCCCC(=O)O)C(=O)O)C(=O)O)C(=O)O)C(=O)O)C(=O)O)C(=O)O)C(=O)NC(C)(C)C(=O)N[C@H](C(=O)N[C@@H](CCCNC(=N)N)C(=O)N[C@@H](CCC(N)=O)C(=O)N[C@@H](CCCNC(=N)N)C(=O)N[C@@H](Cc1ccc(O)cc1)C(N)=O)[C@@H](C)O [Compound 89, Y-Aib-E-G-T-F-T-S-D-Y-S-I-aMeL-L-E-E-Q-A-Q-Aib-A-F-V-R-H-L-I-N-K(1,3)-Aib-T-R-Q-R-Y-NH2.C20DA-gGlu-gGlu-gGlu-gGlu-gGlu-gGlu-eLys(1,2)] | – | – | EC50 ([1]; 100% human plasma, read-out: hNPY2R 100% hP): 160 nM
B1 | – | 1.1 | –
B2 | – | – | EC50, CreLuc reporter, 0.5% hP [3]: 2.2 nM
B3 | – | 2.4 | –

From patent US20250382344A1, “Soluble GLP1/GIP/NPY2 Receptor Triple Agonists” (Boehringer Ingelheim International GmH, priority 2024, published 2025)
